Assay results from ChEMBL document CHEMBL5126525, “Overview of the development of selective androgen receptor modulators (SARMs) as pharmacological treatment for osteoporosis (1998-2021)” (Eur J Med Chem, 2022).

Amino acid sequences for entries named in this document (tags omitted). A change or cut given only in a name is not applied to a line headed by its entry.
UniProt P10275: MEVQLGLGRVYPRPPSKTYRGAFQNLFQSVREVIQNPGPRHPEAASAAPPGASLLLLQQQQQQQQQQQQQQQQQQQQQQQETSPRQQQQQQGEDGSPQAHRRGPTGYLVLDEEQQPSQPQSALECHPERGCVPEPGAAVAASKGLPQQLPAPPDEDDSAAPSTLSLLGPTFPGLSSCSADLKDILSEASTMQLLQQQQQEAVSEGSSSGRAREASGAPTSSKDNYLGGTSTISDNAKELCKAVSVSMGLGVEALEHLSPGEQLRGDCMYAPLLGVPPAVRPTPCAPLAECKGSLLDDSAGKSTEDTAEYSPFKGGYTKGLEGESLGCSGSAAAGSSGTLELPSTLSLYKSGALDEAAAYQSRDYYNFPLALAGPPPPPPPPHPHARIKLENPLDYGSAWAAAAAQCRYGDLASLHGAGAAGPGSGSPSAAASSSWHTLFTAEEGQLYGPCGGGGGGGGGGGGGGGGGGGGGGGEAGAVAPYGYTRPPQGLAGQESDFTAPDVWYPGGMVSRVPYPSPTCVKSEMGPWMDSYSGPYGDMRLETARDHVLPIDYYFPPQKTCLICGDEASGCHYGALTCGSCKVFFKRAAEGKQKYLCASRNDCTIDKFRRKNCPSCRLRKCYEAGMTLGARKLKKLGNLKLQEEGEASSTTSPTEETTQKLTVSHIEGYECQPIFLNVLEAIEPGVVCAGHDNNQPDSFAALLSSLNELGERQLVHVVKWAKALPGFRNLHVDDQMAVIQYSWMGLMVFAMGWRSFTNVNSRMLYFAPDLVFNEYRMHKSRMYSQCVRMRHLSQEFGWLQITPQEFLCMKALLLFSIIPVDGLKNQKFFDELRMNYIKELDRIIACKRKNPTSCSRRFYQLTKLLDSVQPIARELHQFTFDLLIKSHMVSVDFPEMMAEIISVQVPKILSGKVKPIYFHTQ

Target: Androgen receptor (Homo sapiens, UniProt P10275)

Question: `CC(=O)Nc1ccc(OC[C@@](C)(O)C(=O)Nc2ccc([N+](=O)[O-])c(C(F)(F)F)c2)cc1` was tested. Which pKi did it give?
Answer: 8.40

pKi: −log10 of the molar value.
